In data set [1] the target is T1, glutathione-S-transferase-PLC7 SH2 domain fusion (GST-SH2) (Homo sapiens, UniProt P16885).
T1 construct: GST fusion with the N—SH2 domain of SH2 of PLCγ
T1 sequence (P16885 532-635): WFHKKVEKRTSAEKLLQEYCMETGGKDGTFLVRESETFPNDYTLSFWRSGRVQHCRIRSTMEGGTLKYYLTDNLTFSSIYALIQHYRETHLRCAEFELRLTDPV
The data set is described as follows: FA binding to control protein GST-SH2. The conditions noted are these: FITC-labeled peptide.

Chains of the proteins cited; added tags and fusions are not shown. Residues count along the entry.
UniProt P01375, 77-233: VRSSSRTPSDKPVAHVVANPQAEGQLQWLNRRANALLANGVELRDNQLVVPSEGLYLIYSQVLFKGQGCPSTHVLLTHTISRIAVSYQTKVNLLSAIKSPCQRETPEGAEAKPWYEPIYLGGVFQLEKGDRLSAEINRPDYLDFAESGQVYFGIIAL
UniProt P02769, 25-607: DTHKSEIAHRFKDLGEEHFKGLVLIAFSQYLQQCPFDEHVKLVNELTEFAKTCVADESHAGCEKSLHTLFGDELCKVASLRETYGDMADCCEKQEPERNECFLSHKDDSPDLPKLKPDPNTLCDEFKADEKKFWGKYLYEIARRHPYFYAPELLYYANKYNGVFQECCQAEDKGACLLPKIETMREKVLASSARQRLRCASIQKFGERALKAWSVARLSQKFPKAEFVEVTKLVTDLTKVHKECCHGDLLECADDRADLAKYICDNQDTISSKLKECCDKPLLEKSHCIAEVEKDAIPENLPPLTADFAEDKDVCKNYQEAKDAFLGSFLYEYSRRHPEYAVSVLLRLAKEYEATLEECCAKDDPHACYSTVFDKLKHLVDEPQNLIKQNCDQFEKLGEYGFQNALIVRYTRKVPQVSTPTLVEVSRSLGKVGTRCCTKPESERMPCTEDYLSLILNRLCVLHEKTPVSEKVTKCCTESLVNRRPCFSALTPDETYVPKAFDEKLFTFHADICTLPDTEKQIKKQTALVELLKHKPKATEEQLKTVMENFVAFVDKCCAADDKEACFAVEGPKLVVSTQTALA
UniProt P98170, 241-356 limits assumed: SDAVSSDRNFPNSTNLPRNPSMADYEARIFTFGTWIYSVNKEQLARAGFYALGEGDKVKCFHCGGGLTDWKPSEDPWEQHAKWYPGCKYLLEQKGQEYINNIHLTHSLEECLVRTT

Data set [2] deals with T2, protein-tyrosine phosphatase 1B (PTP1B) (Homo sapiens, UniProt P18031).
T2 sequence (P18031 1-435): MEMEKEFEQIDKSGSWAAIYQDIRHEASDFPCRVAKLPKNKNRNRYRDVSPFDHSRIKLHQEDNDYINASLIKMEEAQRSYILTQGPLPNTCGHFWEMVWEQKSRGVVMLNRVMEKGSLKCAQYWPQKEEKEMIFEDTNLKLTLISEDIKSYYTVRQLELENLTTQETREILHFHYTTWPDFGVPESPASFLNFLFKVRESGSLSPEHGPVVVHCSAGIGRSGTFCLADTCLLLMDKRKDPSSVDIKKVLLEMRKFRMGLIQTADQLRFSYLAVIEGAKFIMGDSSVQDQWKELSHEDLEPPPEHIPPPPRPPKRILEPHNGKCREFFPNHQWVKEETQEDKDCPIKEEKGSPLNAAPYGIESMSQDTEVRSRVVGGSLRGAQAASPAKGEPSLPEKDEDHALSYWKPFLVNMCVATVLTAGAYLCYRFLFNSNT
The data set is described as follows: FA binding to control protein PTP1B. The note with it: FITC-labeled peptide.

Data set [3] addresses T3, TNFα (Homo sapiens, UniProt P01375).
T3 construct: extracellular domain of human TNFα (aa 77-233); ybbR tag ([…]; made in house; host or cells: E. coli BL21(DE3)
The data set is described as follows: Fluorescence anisotropy (FA) binding to TNFα. The conditions noted are these: read-out: KD for TNFα; resynthesized, FITC-labeled, HPLC-purified peptide.

Data set [4] addresses T3, TNFα. The data set is described as follows: FA competition between Necrostatin C1 and C2 for binding to TNFα. The conditions noted are these: TNFα 1600 nM, probe 100 nM, 1 h 37° C.
In data set [5] the target is bovine serum albumin (BSA) (Bos taurus, UniProt P02769). The data set is described as follows: FA binding to control protein BSA. The note with it: read-out: KD for BSA; FITC-labeled peptide.
Data set [6] addresses Ras-Raf interaction (Homo sapiens, UniProt P01116). The data set is described as follows: HTRF assay of Ras-Raf interaction. In kind it is binding. The conditions noted are these: read-out: IC50, inhibition of the Ras-Raf interaction. For orientation: Time-resolved FRET reads energy transfer from a long-lived donor to a nearby acceptor.
Data set [7] deals with maltose-binding protein-XIAP BIR3 domain fusion (MBP-BIR3) (Homo sapiens, UniProt P98170). The data set is described as follows: FA binding to MBP-BIR3. The note with it: read-out: KD for MBP-BIR3.
The target of data set [8] is T4, GST-SHD SH2 domain fusion protein (Homo sapiens, UniProt Q96IW2).
T4 sequence (Q96IW2 240-335 limits assumed): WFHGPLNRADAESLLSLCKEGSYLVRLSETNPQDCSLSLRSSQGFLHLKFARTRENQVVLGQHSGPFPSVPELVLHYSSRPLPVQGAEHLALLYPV
The data set is described as follows: FA binding to GST-SHD SH2.

Data set [9] deals with Ras-GTP (Homo sapiens, UniProt P01116). The data set is described as follows: FA binding to K-Ras loaded with GTP. The conditions noted are these: read-out: KD for Ras-GTP; FITC-labeled peptide.
For data set [10], the target named is Ras-GDP (Homo sapiens, UniProt P01116). The data set is described as follows: FA binding to K-Ras loaded with GDP. The conditions noted are these: read-out: KD for Ras-GDP; FITC-labeled peptide.
Data set [11] deals with Ras-GPPNP (Homo sapiens, UniProt P01116). The data set is described as follows: FA binding to K-Ras loaded with GPPNP. The conditions noted are these: read-out: KD for Ras-GPPNP; FITC-labeled peptide.
In data set [12] the target is T5, K-Ras (Homo sapiens, UniProt P01116, G12V).
T5 construct: GST; made in house
The data set is described as follows: FA binding to K-Ras (Example 4 DCAI-bearing bicyclic peptides). The note with it: read-out: KD for K-Ras; FAM- or FITC-labeled peptide; NB = no binding.

The target of data set [13] is K-Ras (Homo sapiens, UniProt P01116). The data set is described as follows: FA binding to K-Ras (Example 2 library hits). The note with it: FITC-labeled, recombinant K-Ras; NA = no significant binding activity.

“Also recorded” adds a separate entry of the source. Read-outs that look alike come from different tables or passages of the source.

Regarding “bicyclo(Phg-Tyr-D-Ala-Lys-Tyr-D-Phe-Gly-D-Lys-His-Dap) [Necrostatin C1]”, the “KD for GST-SH2” value in [1] is recorded as “not to any of the other proteins”. Moreover, the “KD / binding to PTP1B” value in data set [2] is “not to any of the other proteins”.

As usually defined, the IC50 is the point on the concentration scale where inhibition reaches its midpoint. With “bicyclo(Ala-D-Phe-Trp-D-Thr-Gln-Lys-Nle-D-Leu-Ala-His-Dap) [Necrostatin C2]”, the Kd is 1.9 µM in data set [3], 3 to 37 µM in data set [1] (read-out: KD for GST-SH2), 3 to 37 µM in data set [2] (read-out: KD / binding to PTP1B) and 3 to 37 µM in [5]. In addition, the IC50 in data set [4] (read-out: IC50, inhibition of binding of FITC-labeled Necrostatin C1 to TNFα) was ~4 µM; in data set [4] (read-out: IC50, inhibition of binding of FITC-labeled Necrostatin C2 to TNFα) it was ~2 µM.

Take “nal-Ser-Gln-nal-Phg-Lys-phe-Arg-val-Arg-Dap [Hit 82]”: the “KD / binding to PTP1B” value in data set [2] is reported as “very weakly”. For the same substance, the IC50 in data set [6] is ~1.4 µM. Moreover, the Kd in data set [7] was 16 µM; in data set [5], 17 µM; in data set [9] it was 1.2 µM; in data set [10] it was 9.3 µM; in data set [11], 1.6 µM. For the same substance, the “KD / binding to GST-SHD SH2” value in [8] is given as “very weakly”.

In the case of “bicyclo(Ala-d-Leu-Phe-Arg-d-Asn-Pra-Ile-Asp-K-FNalR4-Dap)-K [Peptide 41]”, in data set [12], the Kd was 0.3 µM.

With “bicyclo(Ala-Orn-Phg-Arg-d-Asn-Pra-Ile-d-Phe-K-FNalR4-Dap)-K [Peptide 13]”, the “KD of resynthesized peptide for K-Ras” value in data set [13] was “no significant binding; also recorded: did not show significant binding”.
